Earlier results in patent US20150283139A1, “CANCER TREATMENT METHOD” (SmithKline Beecham (Cork) Limited, priority 2004, published 2015).

Details: cited from earlier work

## trastuzumab: large (Mr 148,000) monoclonal antibody
In vivo
  crossing of the blood-brain barrier: does not cross the blood-brain barrier
Preclinical xenograft models and patients with CNS metastases
  access to the CNS: remains excluded from the CNS
